The record followed here is patent US20040219607A1, “Ligand screening and design by X-ray crystallography” (priority 1998, published 2004).

pKi: −log10 of the molar value.

For the assay, the target named is T1, human urokinase (μUK) (Homo sapiens, UniProt P00749, C299A/N322Q).
T1 construct: μUK (UK amino acids Ile^159-Lys^404 that contain Ala^279Gln^302); made in house; host or cells: baculovirus-infected High-Five insect cells or Pichia pastoris GS115 (secreted)
Kind of assay: Urokinase inhibition constants by S-2444 chromogenic activity. It is filed as biochemical. To be noted: S-2444 substrate. As to the method:
Assays were completed at both pH 6.5 (0.1 M NaPO4) and 7.4 (50 mM Tris).

Consider `Nc1ccc2cccc(Nc3ncccn3)c2n1` [Compound 35, 8-aminopyrimidinyl-2-aminoquinoline], for which the negative logarithm of the Ki (pKi) reads like this: (Ki (pH 6.5), pH 6.5 (0.1 M NaPO4)) 6.49; (Ki (pH 7.4), pH 7.4 (50 mM Tris)) 5.60.
